Patent publication US8406870B2, “Treating cancer using electromagnetic fields in combination with other treatment regimens” (priority 2006, dated 2013)

Experiments:
[1] = system: human breast cancer (MDA-MB-231) cells; details: text summary of Table 2, no intensity given
[2] = system: ER-negative MDA-MB-231 cells

Row | Compound | CI50, combined effect of Doxorubicin and TTFields (additive) [1] | cell number at the end of 72 hours ([2]; 20 mM Cyclophosphamide + 1.75 V/cm TTFields) | cell count lower as compared to number before treatment initiation ([2]; 20 mM Cyclophosphamide + 1.75 V/cm TTFields, after 24 hours) [%] | cell proliferation after cessation of 24 hour treatment ([2]; 20 mM Cyclophosphamide alone for 24 hours, then normal conditions) | reduction in cell number ([2]; 20 mM Cyclophosphamide alone, 24 hours) | cell number during 72 hour treatment ([2]; 20 mM Cyclophosphamide alone, 72 hours)
1 | COc1cccc2c1C(=O)c1c(O)c3c(c(O)c1C2=O)C[C@@](O)(C(=O)CO)C[C@@H]3O[C@H]1C[C@H](N)[C@H](O)[C@H](C)O1 [Doxorubicin] | 1 |  |  |  |  | 
2 | O=P1(N(CCCl)CCCl)NCCCO1 (stereo not drawn) [Cyclophosphamide] |  | almost complete loss of cells | 40±3 | almost complete recovery of the cell proliferation | approx. 27±2% | linear relatively slow increase in the cell number
